Values joined by “and” are separate entries in the source; they are usually repeats but may differ in a detail not shown here. Identical values can stand only once. Like-named read-outs stand apart in the source and are kept apart here.
Settings: after processing, one cycle at 30,000 Psi

SMILES: CNC[C@H](O)c1ccc(O)c(O)c1.O=C(O)C(O)C(O)C(=O)O [EpiBit After Processing, epinephrine bitartrate microcrystals]
- Pdi (polydispersity index): 0.185 and 0.187 and 0.202
- Pdi (polydispersity index) (listed as EpiBit crystals after processing): 0.185±0.019
